Assay results from ChEMBL document CHEMBL1146668, “1,2-Benzothiazine 1,1-dioxide alpha-ketoamide analogues as potent calpain I inhibitors” (Bioorg Med Chem Lett, 2004).

How the values were obtained:
[1] = target: T1, Calpain-1 catalytic subunit (Homo sapiens, UniProt P07384); test: Inhibitory activity tested against human calpain 1 in Molt-4 cells (intact human T-cell leukemia cell line); type: cell-based
T1 sequence (P07384 whole entry): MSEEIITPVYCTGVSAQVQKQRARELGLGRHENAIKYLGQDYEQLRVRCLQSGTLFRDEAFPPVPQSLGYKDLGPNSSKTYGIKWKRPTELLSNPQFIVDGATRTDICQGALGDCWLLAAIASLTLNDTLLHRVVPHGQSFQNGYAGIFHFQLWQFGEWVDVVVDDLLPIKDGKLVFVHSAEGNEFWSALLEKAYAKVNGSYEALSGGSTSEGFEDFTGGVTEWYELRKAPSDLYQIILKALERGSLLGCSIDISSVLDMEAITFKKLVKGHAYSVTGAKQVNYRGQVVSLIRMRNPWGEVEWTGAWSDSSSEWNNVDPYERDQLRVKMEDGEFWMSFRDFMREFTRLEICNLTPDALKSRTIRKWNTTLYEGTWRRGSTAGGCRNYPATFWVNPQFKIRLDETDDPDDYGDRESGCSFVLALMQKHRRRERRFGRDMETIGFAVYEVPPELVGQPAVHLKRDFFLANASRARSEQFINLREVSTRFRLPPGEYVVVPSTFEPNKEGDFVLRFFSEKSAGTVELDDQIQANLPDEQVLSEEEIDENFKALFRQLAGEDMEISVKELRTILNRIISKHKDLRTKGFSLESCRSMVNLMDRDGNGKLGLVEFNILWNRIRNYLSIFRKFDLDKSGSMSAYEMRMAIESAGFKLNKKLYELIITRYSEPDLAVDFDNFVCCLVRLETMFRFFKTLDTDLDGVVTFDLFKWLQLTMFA

[2] = target: T1, Calpain-1 catalytic subunit; test: In vitro inhibitory activity against recombinant human calpain 1

IC50 [1] [nM]	IC50 [2] [nM]	SMILES
2.1	–	CCCCNC(=O)C(=O)[C@H](Cc1ccccc1)NC(=O)C1Cc2cc3c(cc2S(=O)(=O)N1CC)OCCO3 (stereo in doubt)
–	286	CCN1C(C(=O)N[C@@H](Cc2ccccc2)C(=O)C(=O)NCC2CC2)Cc2cc3c(cc2S1(=O)=O)OCCO3 (stereo partly drawn)
–	81	CCN1C(C(=O)N[C@@H](Cc2ccccc2)C(=O)C(=O)NCc2ccccc2)Cc2cc3c(cc2S1(=O)=O)OCCO3 (stereo partly drawn)
